Here are results for one substance from patent US20070060610A1, “Methods and pharmaceutical formulations for increasing bioavailability” (priority 2005, published 2007).

This series relates to Caco-2 monolayers. The following applies: FIG. 1A; 45 minute preincubation; 120 minute time point; Rhodamine 123 13 μM; TPGS 1000 33 μM on both apical and basolateral sides.

Regarding “d-α-tocopheryl polyethylene glycol succinate [TPGS 1000]”, the “increase in Papp (absorptive transport, Ap→Bl) of Rhodamine 123 compared to that achieved without TPGS 1000 pre-exposure” value is “greater than two-fold”.
